Measurements taken from patent publication US20090062400A1, “Method of treating glaucoma using rasagiline” (priority 2007, published 2009).

Amino acid sequences for entries named in this document (tags omitted).
UniProt P21396, whole entry: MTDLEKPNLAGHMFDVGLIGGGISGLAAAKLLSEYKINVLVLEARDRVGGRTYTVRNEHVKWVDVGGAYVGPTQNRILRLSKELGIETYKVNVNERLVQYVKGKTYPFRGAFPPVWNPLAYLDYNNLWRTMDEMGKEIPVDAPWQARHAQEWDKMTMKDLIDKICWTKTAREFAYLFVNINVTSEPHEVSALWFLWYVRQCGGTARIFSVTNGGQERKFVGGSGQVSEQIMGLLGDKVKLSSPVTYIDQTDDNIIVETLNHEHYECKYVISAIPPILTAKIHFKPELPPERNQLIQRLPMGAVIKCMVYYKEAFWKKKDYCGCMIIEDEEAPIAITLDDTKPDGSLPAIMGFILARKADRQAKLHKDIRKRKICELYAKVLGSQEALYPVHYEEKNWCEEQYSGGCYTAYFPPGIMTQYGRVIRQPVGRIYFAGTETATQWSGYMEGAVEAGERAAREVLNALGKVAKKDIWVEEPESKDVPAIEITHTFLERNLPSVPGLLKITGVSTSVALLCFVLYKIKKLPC
UniProt P19643, whole entry: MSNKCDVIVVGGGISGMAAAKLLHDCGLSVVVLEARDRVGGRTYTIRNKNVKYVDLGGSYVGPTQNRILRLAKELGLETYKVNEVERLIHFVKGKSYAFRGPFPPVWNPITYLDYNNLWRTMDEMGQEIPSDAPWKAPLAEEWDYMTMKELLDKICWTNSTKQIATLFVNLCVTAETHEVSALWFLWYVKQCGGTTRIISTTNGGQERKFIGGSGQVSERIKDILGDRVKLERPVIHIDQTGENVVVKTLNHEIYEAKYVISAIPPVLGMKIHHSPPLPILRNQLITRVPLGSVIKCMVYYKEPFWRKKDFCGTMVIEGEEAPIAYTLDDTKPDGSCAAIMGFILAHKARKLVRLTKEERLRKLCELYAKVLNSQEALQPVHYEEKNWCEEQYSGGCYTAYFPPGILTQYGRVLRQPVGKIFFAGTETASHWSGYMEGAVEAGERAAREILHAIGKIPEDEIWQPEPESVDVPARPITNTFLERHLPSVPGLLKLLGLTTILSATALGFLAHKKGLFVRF

Columns and labels:
MAO-A = MAO-A (Rattus norvegicus, UniProt P21396); conditions: 10 days; for Percent of MAO-A Inhibition, Brain: rat brain; for Percent of MAO-A Inhibition, Liver: rat liver; for % Inhibition MAO-A, calculated from activity (nmol/hour/mg protein) / % Inhibition MAO-A, calculated from dpm / MAO-A activity, Retina / MAO-A dpm ± sd / Percent of MAO-A Inhibition, Retina / MAO-A nmol/hour/mg protein ± sd: rat retina
Description: (§1) Rats were sacrificed 2-3 hours after last administration. According to preliminary experiment, in order to obtain enough substance for MAO and protein analysis, 4 retinas (from 2 rats) were combined into one sample, (3 retina samples for MAO per each dose groups). The 6 brains and 6 livers were analyzed separately.

MAO-B = MAO-B (Rattus norvegicus, UniProt P19643); conditions: 10 days; for % Inhibition MAO-B, calculated from activity (nmol/hour/mg protein) / % Inhibition MAO-B, calculated from dpm / MAO-B activity, Retina / MAO-B dpm ± sd / MAO-B nmol/hour/mg protein ± sd / Percent of MAO-B Inhibition, Retina: rat retina
Description: as §1

[1] = P.O 0.41 mg/kg/day, group 7, vs water control
[2] = eye drops 0.0165 mg/kg/day, group 6, vs mannitol control
[3] = eye drops 0.08 mg/kg/day, group 5, vs mannitol control
[4] = eye drops 0.4 mg/kg/day, group 4, vs mannitol control
[5] = eye drops 2.0 mg/kg/day, group 3, vs mannitol control
[6] = eye drops 7.9 mg/kg/day, group 2, vs mannitol control
[7] = eye drops 0.0165 mg/kg/day, group 6
[8] = eye drops 0.08 mg/kg/day, group 5
[9] = eye drops 0.4 mg/kg/day, group 4
[10] = eye drops 2.0 mg/kg/day, group 3
[11] = eye drops 7.9 mg/kg/day, group 2

C#CCN[C@@H]1CCc2ccccc21 [Rasagiline, R(+)—N-propargyl-1-aminoindan]
Percent of MAO-A Inhibition, Brain (MAO-A; [1]): 47%
Percent of MAO-A Inhibition, Brain (MAO-A; [2]): 9%
Percent of MAO-A Inhibition, Brain (MAO-A; [3]): 22%
Percent of MAO-A Inhibition, Brain (MAO-A; [4]): 65%
Percent of MAO-A Inhibition, Brain (MAO-A; [5]): 93%
Percent of MAO-A Inhibition, Brain (MAO-A; [6]): 97%
Percent of MAO-A Inhibition, Liver (MAO-A; [1]): 52%
Percent of MAO-A Inhibition, Liver (MAO-A; [2]): −5%
Percent of MAO-A Inhibition, Liver (MAO-A; [3]): 7%
Percent of MAO-A Inhibition, Liver (MAO-A; [4]): 41%
Percent of MAO-A Inhibition, Liver (MAO-A; [5]): 77%
Percent of MAO-A Inhibition, Liver (MAO-A; [6]): 94%
% Inhibition MAO-A, calculated from activity (nmol/hour/mg protein) (MAO-A; P.O 0.41 mg/kg/day, group 7): 54%
% Inhibition MAO-A, calculated from dpm (MAO-A; P.O 0.41 mg/kg/day, group 7): 40%
MAO-A activity, Retina (MAO-A; P.O 0.41 mg/kg/day, group 7): 968 ± 147
MAO-A dpm ± sd (MAO-A; P.O 0.41 mg/kg/day, group 7): 968 ± 147 dpm
Percent of MAO-A Inhibition, Retina (MAO-A; [1]): 40%
% Inhibition MAO-A, calculated from activity (nmol/hour/mg protein) (MAO-A; [7]): −66%
% Inhibition MAO-A, calculated from dpm (MAO-A; [7]): −29%
MAO-A activity, Retina (MAO-A; [7]): 1690 ± 215
MAO-A dpm ± sd (MAO-A; [7]): 1690 ± 215 dpm
MAO-A nmol/hour/mg protein ± sd (MAO-A; [7]): 19.89 ± 0.4 nmol/hour/mg protein
Percent of MAO-A Inhibition, Retina (MAO-A; [2]): −29%
% Inhibition MAO-A, calculated from activity (nmol/hour/mg protein) (MAO-A; [8]): 14%
% Inhibition MAO-A, calculated from dpm (MAO-A; [8]): 35%
MAO-A activity, Retina (MAO-A; [8]): 849 ± 136
MAO-A dpm ± sd (MAO-A; [8]): 849 ± 136 dpm
MAO-A nmol/hour/mg protein ± sd (MAO-A; [8]): 10.33 ± 0.89 nmol/hour/mg protein
Percent of MAO-A Inhibition, Retina (MAO-A; [3]): 35%
% Inhibition MAO-A, calculated from activity (nmol/hour/mg protein) (MAO-A; [9]): 68%
% Inhibition MAO-A, calculated from dpm (MAO-A; [9]): 67%
MAO-A activity, Retina (MAO-A; [9]): 435 ± 126
MAO-A dpm ± sd (MAO-A; [9]): 435 ± 126 dpm
MAO-A nmol/hour/mg protein ± sd (MAO-A; [9]): 3.88 ± 0.59 nmol/hour/mg protein
Percent of MAO-A Inhibition, Retina (MAO-A; [4]): 67%
% Inhibition MAO-A, calculated from activity (nmol/hour/mg protein) (MAO-A; [10]): 95%
% Inhibition MAO-A, calculated from dpm (MAO-A; [10]): 96%
MAO-A activity, Retina (MAO-A; [10]): 56 ± 19
MAO-A dpm ± sd (MAO-A; [10]): 56 ± 19 dpm
MAO-A nmol/hour/mg protein ± sd (MAO-A; [10]): 0.59 ± 0.1 nmol/hour/mg protein
Percent of MAO-A Inhibition, Retina (MAO-A; [5]): 96%
% Inhibition MAO-A, calculated from activity (nmol/hour/mg protein) (MAO-A; [11]): 97%
% Inhibition MAO-A, calculated from dpm (MAO-A; [11]): 97%
MAO-A activity, Retina (MAO-A; [11]): 38 ± 10
MAO-A dpm ± sd (MAO-A; [11]): 38 ± 10 dpm
MAO-A nmol/hour/mg protein ± sd (MAO-A; [11]): 0.4 ± 0.03 nmol/hour/mg protein
Percent of MAO-A Inhibition, Retina (MAO-A; [6]): 97%
MAO-A inhibition in retina and brain, intraocular in comparison to oral (MAO-A; rats, 0.4 mg/kg/day intraocular vs 0.4 mg/kg/day given orally): slightly higher
Percent of MAO-B Inhibition, Brain (MAO-B; rat brain, P.O 0.41 mg/kg/day, group 7, vs water control): 98%
Percent of MAO-B Inhibition, Brain (MAO-B; rat brain, eye drops 0.0165 mg/kg/day, group 6, vs mannitol control): 70%
Percent of MAO-B Inhibition, Brain (MAO-B; rat brain, eye drops 0.08 mg/kg/day, group 5, vs mannitol control): 95%
Percent of MAO-B Inhibition, Brain (MAO-B; rat brain, eye drops 0.4 mg/kg/day, group 4, vs mannitol control): 98%
Percent of MAO-B Inhibition, Brain (MAO-B; rat brain, eye drops 2.0 mg/kg/day, group 3, vs mannitol control): 99%
Percent of MAO-B Inhibition, Brain (MAO-B; rat brain, eye drops 7.9 mg/kg/day, group 2, vs mannitol control): 99%
inhibition of brain MAO-B (MAO-B; rat brain, intraocular 0.0165 mg/kg/day): does inhibit
Percent of MAO-B Inhibition, Liver (MAO-B; rat liver, P.O 0.41 mg/kg/day, group 7, vs water control): 98%
Percent of MAO-B Inhibition, Liver (MAO-B; rat liver, eye drops 0.0165 mg/kg/day, group 6, vs mannitol control): 8%
Percent of MAO-B Inhibition, Liver (MAO-B; rat liver, eye drops 0.08 mg/kg/day, group 5, vs mannitol control): 73%
Percent of MAO-B Inhibition, Liver (MAO-B; rat liver, eye drops 0.4 mg/kg/day, group 4, vs mannitol control): 93%
Percent of MAO-B Inhibition, Liver (MAO-B; rat liver, eye drops 2.0 mg/kg/day, group 3, vs mannitol control): 95%
Percent of MAO-B Inhibition, Liver (MAO-B; rat liver, eye drops 7.9 mg/kg/day, group 2, vs mannitol control): 98%
inhibition of liver MAO-B (MAO-B; rat liver, intraocular 0.0165 mg/kg/day): does not inhibit
% Inhibition MAO-B, calculated from activity (nmol/hour/mg protein) (MAO-B; P.O 0.41 mg/kg/day, group 7): 98%
% Inhibition MAO-B, calculated from dpm (MAO-B; P.O 0.41 mg/kg/day, group 7): 98%
MAO-B activity, Retina (MAO-B; P.O 0.41 mg/kg/day, group 7): 28 ± 10
MAO-B dpm ± sd (MAO-B; P.O 0.41 mg/kg/day, group 7): 28 ± 10 dpm
MAO-B nmol/hour/mg protein ± sd (MAO-B; P.O 0.41 mg/kg/day, group 7): 0.04 ± 0.01 nmol/hour/mg protein
Percent of MAO-B Inhibition, Retina (MAO-B; [1]): 98%
% Inhibition MAO-B, calculated from activity (nmol/hour/mg protein) (MAO-B; [7]): 88%
% Inhibition MAO-B, calculated from dpm (MAO-B; [7]): 91%
MAO-B activity, Retina (MAO-B; [7]): 60 ± 24
MAO-B dpm ± sd (MAO-B; [7]): 60 ± 24 dpm
MAO-B nmol/hour/mg protein ± sd (MAO-B; [7]): 0.10 ± 0.04 nmol/hour/mg protein
Percent of MAO-B Inhibition, Retina (MAO-B; [2]): 91%
% Inhibition MAO-B, calculated from activity (nmol/hour/mg protein) (MAO-B; [8]): 95%
% Inhibition MAO-B, calculated from dpm (MAO-B; [8]): 96%
MAO-B activity, Retina (MAO-B; [8]): 25 ± 3
MAO-B dpm ± sd (MAO-B; [8]): 25 ± 3 dpm
MAO-B nmol/hour/mg protein ± sd (MAO-B; [8]): 0.04 ± 0.01 nmol/hour/mg protein
Percent of MAO-B Inhibition, Retina (MAO-B; [3]): 96%
% Inhibition MAO-B, calculated from activity (nmol/hour/mg protein) (MAO-B; [9]): 98%
% Inhibition MAO-B, calculated from dpm (MAO-B; [9]): 98%
MAO-B activity, Retina (MAO-B; [9]): 11 ± 9
MAO-B dpm ± sd (MAO-B; [9]): 11 ± 9 dpm
MAO-B nmol/hour/mg protein ± sd (MAO-B; [9]): 0.01 ± 0.01 nmol/hour/mg protein
Percent of MAO-B Inhibition, Retina (MAO-B; [4]): 98%
% Inhibition MAO-B, calculated from activity (nmol/hour/mg protein) (MAO-B; [10]): 97%
% Inhibition MAO-B, calculated from dpm (MAO-B; [10]): 98%
MAO-B activity, Retina (MAO-B; [10]): 15 ± 2
MAO-B dpm ± sd (MAO-B; [10]): 15 ± 2 dpm
MAO-B nmol/hour/mg protein ± sd (MAO-B; [10]): 0.02 ± 0.00 nmol/hour/mg protein
Percent of MAO-B Inhibition, Retina (MAO-B; [5]): 98%
% Inhibition MAO-B, calculated from activity (nmol/hour/mg protein) (MAO-B; [11]): 98%
% Inhibition MAO-B, calculated from dpm (MAO-B; [11]): 98%
MAO-B activity, Retina (MAO-B; [11]): 12 ± 8
MAO-B dpm ± sd (MAO-B; [11]): 12 ± 8 dpm
MAO-B nmol/hour/mg protein ± sd (MAO-B; [11]): 0.02 ± 0.01 nmol/hour/mg protein
Percent of MAO-B Inhibition, Retina (MAO-B; [6]): 98%

Like-named read-outs stand apart in the source and are kept apart here.
